In PubChem BioAssay AID1628 (Sanford-Burnham Center for Chemical Genomics, 2009) one finds z-score data, which are given here for 66 compounds.

Values joined by “and” are separate entries in the source; they are usually repeats but may differ in a detail not shown here. Identical values can stand only once. This is a selection; strong and weak results do not stand in their true shares. Potency and affinity values are given separately. Active and inactive are the calls of the source.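 How the source made its calls: active means z-score of insulin promoter reporter brightness in nuclei below -3 at 5 µM, with at least 500 cells counted; inconclusive means wells with under 500 cells, flagged as toxic or sparse; inactive means the rest.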

A short description of this experiment: insulin promoter down-regulators in MIN6 cells, imaging, high-content screening, mouse beta cells (AID 1628). The following applies: MIN6 insulin promoter GFP reporter, at 5 µM, hits give low values.
With `c1nnnn1CCn1cnnn1`, the z-score is inactive: -1.04. For `CC(C)C(=O)NC(Sc1ccccc1)C(Cl)(Cl)Cl` (stereo unspecified), the z-score was inactive: -0.11.

As to `O=P(Nc1nccs1)(c1ccccc1)c1ccccc1`, the z-score was inactive: 0.21. On to `C[C@H]1OP(=O)(Oc2ccccc2)[C@H](O)[C@H](O)[C@H]1N=[N+]=[N-]` (stereo partly specified), for which the z-score is inactive: 0.41. Consider `O=P(Nc1nc2ccccc2s1)(c1ccccc1)c1ccccc1`, for which the z-score was inactive: 0.45. `O=P(Nc1ccccn1)(c1ccc(Br)cc1)c1ccc(Br)cc1`: the z-score was inactive: 0.75. Consider `O=C(OC1CN2CCC1CC2)c1cccc(Cl)c1` (stereo unspecified), for which the z-score was inactive: -0.3. Turning to `Nc1ccc([As](=O)(O)c2ccc([N+](=O)[O-])cc2)cc1`, the z-score was inactive: 0.48.

Take `C(Cc1nn[nH]n1)Cc1nn[nH]n1`: the z-score is inactive: 0.33. Consider `O=[As](O)(c1ccccc1)c1ccc(O)cc1`, for which the z-score was inactive: 0.

On to `O=[N+]([O-])c1ncn(CCn2cnc([N+](=O)[O-])n2)n1`, for which the z-score is inactive: -0.47. On to `CCOC(=O)NC(Sc1ccccc1)C(Cl)(Cl)Cl` (stereo unspecified), for which the z-score is inactive: -0.6. Consider `Cc1ccc(NP(=O)(Oc2cccc(C)c2)Oc2cccc(C)c2)nc1`, for which the z-score is inactive: 0.15.

For the compound `c1ccc(-c2nn[nH]n2)c(-c2nn[nH]n2)c1`, the z-score was inactive: -0.11. The figure for `CCNC(=S)/N=C(\N)N[N+](=O)[O-]` is inactive: -0.59; for `O=C(NC1CCS(=O)(=O)C1)NP(=S)(Oc1ccccc1)Oc1ccccc1` (stereo unspecified) it is inactive: -0.14.

On to `CN(C)C(=O)Oc1noc2ccccc12`, for which the z-score was inactive: 0.17.

Consider `Cc1ccccc1OP(=O)(Nc1ccccn1)Oc1ccccc1C`, for which the z-score is inactive: -0.06. The result for `Cc1ccc(OP(=O)(Nc2ccccn2)Oc2ccc(C)cc2)cc1` reads inactive: 0.2; that for `CC(=O)NC(SC(=S)N(CC(C)C)CC(C)C)C(Cl)(Cl)Cl` (stereo unspecified), inactive: -0.43; that for `COC(=O)c1cc2c(s1)N=C(c1ccccc1)N(C)P2(=O)N1CCOCC1` (stereo unspecified), inactive: -0.4. The figure for `CC(C)(C)C(=O)NC(Sc1ccccc1)C(Cl)(Cl)Cl` (stereo unspecified) is inactive: -0.44; for `CCOc1ccc(C2=NCC(CBr)S2)cc1` (stereo unspecified) it is inactive: -0.43. As for `O=P1(Nc2nc3ccc(Cl)cc3s2)COc2ccccc2O1` (stereo unspecified), the z-score is inactive: 0.16.

Take `CC(=O)Nc1ccc(Oc2c([N+](=O)[O-])cc([N+](=O)[O-])cc2[N+](=O)[O-])cc1`: the z-score is inactive: 0.12. For `CC(=O)Nc1ccc([As](=O)(O)O)c(O)c1`, the z-score is inactive: 0.28. `C[C@@H]1C=CCP(=O)(Oc2ccccc2)O1` (stereo partly specified): the z-score was inactive: -0.09.

Consider `C[C@H]1OP(=O)(Oc2ccccc2)C[C@@H]2O[C@@H]21` (stereo partly specified), for which the z-score was inactive: 0.65. On to `Clc1ccc(Cl)c(NC2=NCC(CBr)S2)c1` (stereo unspecified), for which the z-score was inactive: -0.2. The figure for `Cc1ccc(OP(=O)(Nc2nccs2)Oc2ccc(C)cc2)cc1` is inactive: -0.02; for `COc1ccccc1OP(=O)(Nc1ccc(C)cn1)Oc1ccccc1OC` it is inactive: 0.1. With `Cc1ccc(N/C(=N/P(=O)(N2CCOCC2)N2CCOCC2)N2CCOCC2)cc1`, the z-score was inactive: -0.33. As to `NC(=O)c1cc([N+](=O)[O-])cc([N+](=O)[O-])c1N`, the z-score is inactive: -0.23. Take `Cc1c2non([O-])c-2c(C)[n+](=O)[n+]1[O-]`: the z-score is inactive: 0.15. In the case of `Oc1ccccc1CNc1ccccn1`, the z-score was inactive: 1.03. The result for `Cc1ccc(NP(=O)(Oc2ccccc2F)Oc2ccccc2F)nc1` reads inactive: 0.46. Consider `CCOP(=O)(Nc1ccccc1)OCC`, for which the z-score was inactive: -0.31 and inactive: 0.07. In the case of `Cc1cc(SC(NC(=O)c2ccc(F)cc2)C(Cl)(Cl)Cl)ncn1` (stereo unspecified), the z-score is inactive: -0.56. For `O=P(Nc1nc2ccc(Cl)cc2s1)(c1ccccc1)c1ccccc1`, the z-score is inactive: -0.02.

As to `O=C(O)c1ccccc1[As](=O)(O)O`, the z-score is inactive: 2.48. Turning to `CC(=O)Nc1ccc([As](=O)(O)O)cc1`, the z-score is inactive: -0.79. The figure for `Nc1cccc2ccc([As](=O)(O)O)cc12` is inactive: -1.47.

As to `CCN(N=Nc1nonc1N)c1nonc1N`, the z-score is inactive: 0.06.

Regarding `O=C(Nc1cc([As](=O)(O)O)ccc1O)c1ccccc1`, the z-score is inactive: 0.2.

`O=C(O)CNc1ccc([As](=O)(O)O)cc1`: the z-score is inactive: -0.21. On to `O=[N+]([O-])c1cccc(NC2=NCC(CBr)S2)c1` (stereo unspecified), for which the z-score was inactive: -0.22. In the case of `O=[N+]([O-])c1ncn(CCn2ncnc2[N+](=O)[O-])n1`, the z-score is inactive: 1.07. As to `CC(C)(C)C(=O)NC(Sc1ccncn1)C(Cl)(Cl)Cl` (stereo unspecified), the z-score is inactive: 0.68. Turning to `CCc1nc2c(n1)c1c(non1O)c1c2no[n+]1[O-]`, the z-score is inactive: -0.23. For `Cc1ccc(NP(=O)(Oc2ccccc2)Oc2ccccc2)nc1`, the z-score is inactive: -0.03.

Take `COc1ccc(C2=NCC(CBr)S2)cc1` (stereo unspecified): the z-score was inactive: 0.22.

As for `CC1CCN(C(=O)Oc2c(Cl)cc(Cl)c3cccnc23)CC1`, the z-score is inactive: -0.04. Turning to `CC(C)=N/N=C(\N)N[N+](=O)[O-]`, the z-score was inactive: 0.05. The figure for `CCN(/C(=N/P(=O)(N1CCOCC1)N1CCOCC1)N1CCOCC1)c1ccc(OC)cc1` is inactive: 0.2. For the compound `C[N+]1=C2C=CC=CC=C2SC12C([N+](=O)[O-])=CC([N+](=O)[O-])=C[C-]2[N+](=O)[O-]` (stereo unspecified), the z-score was inactive: -0.5.

`Nc1ccc([As](=O)(O)c2ccc(N)cc2)cc1`: the z-score is inactive: -0.15.

Take `O=C(COc1ccccc1)OC1CN2CCC1CC2` (stereo unspecified): the z-score is inactive: -0.74. Take `COP1(=S)c2c(C)nn(CCC#N)c2N=C(c2ccc(F)cc2)N1C` (stereo unspecified): the z-score is inactive: 0.56. The figure for `CCC(C)N(CC(C)C)C(=S)SC(NC(C)=O)C(Cl)(Cl)Cl` (stereo unspecified) is inactive: 0.23.

In the case of `CCOC(=O)c1ccc(NC(=O)C(C)(CCl)SC)cc1` (stereo unspecified), the z-score was inactive: 0.17. Take `Cc1cc(SC(NC(=O)c2ccccc2)C(Cl)(Cl)Cl)nc(C(C)C)n1` (stereo unspecified): the z-score is inactive: -0.38. As for `CCOC(=O)Nc1ccc([As](=O)(O)O)c(O)c1`, the z-score is inactive: 0.07.

`O=P(Nc1ccccn1)(c1cccc2ccccc12)c1cccc2ccccc12`: the z-score was inactive: -0.05.

Take `Cc1cc(SC(NC=O)C(Cl)(Cl)Cl)ncn1` (stereo unspecified): the z-score was inactive: 1.65. Take `O=[N+]([O-])c1ccc(Nc2ccc(Oc3ccc([N+](=O)[O-])cc3[N+](=O)[O-])cc2)c([N+](=O)[O-])c1`: the z-score was inactive: -0.43. The figure for `CCOC(=O)Nc1cccc([As](=O)(O)O)c1` is inactive: -0.38.
